# Experimental intrinsic clearance values from OPERA 2.9

Intrinsic clearance (human, µL/min per 10^6 hepatocytes): higher is faster turnover, and 0 stands for none detected.
A value with < or ≤ is an upper limit.
"–" marks a cell with nothing listed here.

SMILES | name | Clint (µL/min/10^6 cells)
C=CN1CCCC1=O | N-vinyl-2-pyrrolidone | 0
COC(=O)c1c(Cl)nn(C)c1S(=O)(=O)NC(=O)Nc1nc(OC)cc(OC)n1 | Halosulfuron-methyl | 0
CN1CCC[C@H]1c1cccnc1 | Nicotine | 4.44
O=C(NO)C1(NS(=O)(=O)c2ccc(Oc3ccc(F)cc3)cc2)CCOCC1 | – | 2.27
COc1ccc(-c2ccc3c(N4CCOC[C@@H]4C)nc(N4CCOC[C@@H]4C)nc3n2)cc1C(C)O (stereo not given in full) | – | 38.02
CNC(=NC#N)NCCSCc1nc[nH]c1C | Cimetidine | 5.452
CS(=O)(=O)c1ccc([C@@H](C[C@H]2CCC(=O)C2)C(=O)Nc2cnccn2)cc1Cl | Piragliatin | 6.26
CN(C)CCC=C1c2ccccc2CCc2ccccc21 | Amitriptyline | 12.46
COc1ccc(CCN2C(=O)N(NS(C)(=O)=O)C[C@H]2c2ccc(OC)cc2)cc1 | – | 20.42
COc1cc(S(=O)(=O)[O-])c(C)cc1/N=N/c1c(O)ccc2cc(S(=O)(=O)[O-])ccc12.[Na+].[Na+] | – | 0
Nc1nc(=O)c2nc(CNc3ccc(C(=O)N[C@@H](CCC(=O)O)C(=O)O)cc3)cnc2[nH]1 | Folic acid | 0
COC(=O)c1ccccc1O | Methyl salicylate | 817
COC(=O)c1cccc(C)c1S(=O)(=O)NC(=O)Nc1nc(OCC(F)(F)F)nc(N(C)C)n1 | Triflusulfuron-methyl | 14.47
CC(=O)O.CC(=O)O.N=C(NCCCCCCNC(=N)NC(=N)Nc1ccc(Cl)cc1)NC(=N)Nc1ccc(Cl)cc1 | Chlorhexidine diacetate | 0
Oc1cc2ccccc2c2ccccc12 | 9-phenanthrol | 20.98
CC1(C)C(=O)NC(=O)N1CO | 1-(hydroxymethyl)-5,5-dimethylhydantoin | 13.1
C=CCc1ccccc1OCC(O)CNC(C)C (stereo unspecified) | Alprenolol | 17.4
CC(C)c1ccc(C(=O)N=C(N)N)cc1S(C)(=O)=O.CS(=O)(=O)O | Cariporide mesylate | 0
CN1C(=O)CC[C@H]1c1cccnc1 | Cotinine | 0
Cc1c(N(C)C)c(=O)n(-c2ccccc2)n1C | Aminopyrine | 3.772
C=CCOc1ccccc1OCC(O)CNC(C)C (stereo unspecified) | Oxprenolol | 4.283
Cc1ccc(S(=O)(=O)NC(=O)NN2CCCCCC2)cc1 | Tolazamide | 0
CCN(CC)C(=O)c1cccc(C)c1 | Diethyltoluamide | 3.8
COc1cccc2c1c(NS(=O)(=O)c1ccc(Cl)s1)nn2Cc1cccc(CNC(=O)[C@H]2COCCN2)c1 | – | 17.89
Oc1ccccc1O | Catechol | 42.3
O=S(=O)([O-])c1ccc(N=Nc2c(O)ccc3cc(S(=O)(=O)[O-])ccc23)cc1.[Na+].[Na+] | Fd&c yellow 6 | 18.9
COC(=O)c1c(C)cc(O)c(C)c1O | Methyl 2,4-dihydroxy-3,6-dimethylbenzoate | 268
CC(CCC(=O)O)(c1ccc(O)cc1)c1ccc(O)cc1 | Diphenolic acid | 0
O=C(NCCN1CCOCC1)c1ccc(Cl)cc1 | Moclobemide | < 3
Cc1c2ccccc2c(C)c2c1ccc1ccccc12 | – | 3.226
CC(=O)[C@H]1CC[C@H]2[C@@H]3CCC4=CC(=O)CC[C@]4(C)[C@H]3CC[C@]12C | Progesterone | 33.7
CC(C)(c1cc(Br)c(O)c(Br)c1)c1cc(Br)c(O)c(Br)c1 | 3,3',5,5'-tetrabromobisphenol a | 50.5
Cc1nc2n(c(=O)c1CCN1CCC(c3noc4cc(F)ccc34)CC1)CCCC2 | Risperidone | 10.9

Excerpt, the opening 4 entries:

{"smiles": "C=CN1CCCC1=O", "name": "N-vinyl-2-pyrrolidone", "Clint (µL/min/10^6 cells)": "0"}
{"smiles": "COC(=O)c1c(Cl)nn(C)c1S(=O)(=O)NC(=O)Nc1nc(OC)cc(OC)n1", "name": "Halosulfuron-methyl", "Clint (µL/min/10^6 cells)": "0"}
{"smiles": "CN1CCC[C@H]1c1cccnc1", "name": "Nicotine", "Clint (µL/min/10^6 cells)": "4.44"}
{"smiles": "O=C(NO)C1(NS(=O)(=O)c2ccc(Oc3ccc(F)cc3)cc2)CCOCC1", "Clint (µL/min/10^6 cells)": "2.27"}

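The OPERA project collected these measurements from public sources as training and test data for property models. The files give a single number for a compound and property, which may rest on several reports. Method, purity and exact conditions of the single measurements are not given. Where a salt, mixture or single isomer is drawn, the source does not say that exactly this form was tested. Some entries may be limits or estimates that an upstream database listed as plain numbers.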

Values as listed in the OPERA 2.9 repository of K. Mansouri.